# Measured values taken from US20240301023A1 (priority 2020, published 2024).
# By UniProt entry, the sequences of proteins in these tests, tags left out. Where a name states a change or a piece, a line headed by the entry shows the natural chain unless it says otherwise.
# UniProt P41145: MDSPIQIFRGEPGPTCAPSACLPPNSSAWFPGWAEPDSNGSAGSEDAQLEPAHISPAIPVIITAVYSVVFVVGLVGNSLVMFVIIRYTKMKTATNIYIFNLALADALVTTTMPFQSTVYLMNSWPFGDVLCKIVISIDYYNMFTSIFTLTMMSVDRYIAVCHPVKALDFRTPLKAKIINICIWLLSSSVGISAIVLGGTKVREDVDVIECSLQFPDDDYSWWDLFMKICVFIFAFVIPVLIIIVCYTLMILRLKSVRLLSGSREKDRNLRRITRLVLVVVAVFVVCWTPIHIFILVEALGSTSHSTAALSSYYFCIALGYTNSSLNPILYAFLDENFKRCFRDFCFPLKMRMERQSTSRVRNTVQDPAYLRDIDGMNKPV
# Biological target: KOR (Homo sapiens, UniProt P41145)
# Experiment: biochemical
# Assay type: binding
smiles,measurement,value
"Oc1ccc2c3c1O[C@H]1c4[nH]c5ccccc5c4C[C@@]4(O)[C@@H](C2)N(CC2CC2)CC[C@]314 [Naltrindole, reference compound]",Kd,0.8 nM
